This note sets out measurements from patent US12358918B2, “Aryl hydrocarbon receptor (AHR) activator compounds as cancer therapeutics” (THE BROAD INSTITUTE, INC., priority 2018, dated 2025).

The structures appear in SMILES notation.

This test concerns the target T1, recombinant human Adenosine A2B (FAST-003C) receptor (Homo sapiens, UniProt P29275).
T1 sequence (P29275 1-332): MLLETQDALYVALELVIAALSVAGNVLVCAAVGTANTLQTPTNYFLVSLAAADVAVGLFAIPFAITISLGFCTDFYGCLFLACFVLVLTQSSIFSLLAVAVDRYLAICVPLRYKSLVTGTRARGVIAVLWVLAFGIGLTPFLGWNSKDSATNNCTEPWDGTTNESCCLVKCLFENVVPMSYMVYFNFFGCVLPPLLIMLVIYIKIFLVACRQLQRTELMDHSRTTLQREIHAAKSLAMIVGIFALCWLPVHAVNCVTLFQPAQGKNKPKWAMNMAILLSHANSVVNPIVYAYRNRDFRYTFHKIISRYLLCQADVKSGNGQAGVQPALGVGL
In words: cAMP HTRF assay, Adenosine A2B receptor, antagonist mode. For orientation: In TR-FRET formats the signal depends on donor and acceptor labels being close together.

On to `Nc1nc2ccc(Cl)cc2c2nc(-c3ccco3)nn12` [CGS-15943, reference compound], for which the IC50 is 21.9 nM.

In general, IC50 refers to the point on the concentration scale where inhibition reaches its midpoint.
